Test system: intracellular amastigotes of L. (L.) infantum chagasi
Assay: Replication of intracellular amastigotes in infected peritoneal macrophages (phagocytic index)
Assay type: cell-based, Leishmania (L.) infantum chagasi
Conditions: macrophage CC50 / intracellular amastigote EC50

Row | SMILES | Selectivity index (CC50 value/ EC50 value)
1 | O=c1[nH]cnc2c(CNC(CO)CO)c[nH]c12 [SMIH] | 113
2 | Nc1ncnc2c(C3N[C@H](CO)[C@@H](O)[C@H]3O)c[nH]c12 (some centres unmarked) [IA] | 377

— paper PMC4409337, “Immucillins Impair Leishmania (L.) infantum chagasi and Leishmania (L.) amazonensis Multiplication In Vitro” (PLoS ONE, 2015)
